Consider one compound from patent publication US7659252B2, “Transdermal delivery peptides and method of use thereof” (Novomed Technologies, Inc. (Shanghai), priority 2005, dated 2010).

Molecules are shown by their SMILES. Where a name gives a salt, the structure may show the parent alone.

The test concerns male Sprague-Dawley rats. The test can be described thus: Transdermal apomorphine delivery, APO-induced penile erections. The class given is in vivo, rat. Conditions: co-administered TD-1 fixed at 0.8 mg/kg. The method, then:
The transdermal-enhancing effect of TD-1 on APO transdermal delivery was tested in male Sprague-Dawley rats that weigh 200-250 g and were kept on a 12 hour on/off light cycle with food and water ad libitum. All behavioral studies were performed from 9:00 am to 4:00 pm at 24±1° C. While the animals were anesthetized with Urethane, the hair in an area of approximately 3.0 cm×3.0 cm in the interscapular region was carefully trimmed using scissors, with caution not to damage the skin (rats with any visible sign of skin damage were not used). Rats were allowed to recover for at least 24 hours before the experiments. One hundred ul cream containing indicated amounts of apomorphine (APO) was placed on the exposed skin and spread evenly using the side of a pipet tip. The cream formulation contains: glyceryl monostearate (7.5% by weight), hydroxypropyl methylcellulose (0.5% by weight), isopropyl myristate (10% by weight), methylparaben (0.5% by weight), propylparaben (0.5% by weight), polyxyl-40-stearat (11% by weight), saline (70% by weight), and various doses of APO and TD-1 that were coadministered.
Immediately after administration, rats were placed into individual polystyrene cages (32 cm long, 30 cm wide, 30 cm high) for behavioral observation. […]

Take `CN1CCc2cccc3c2[C@H]1Cc1ccc(O)c(O)c1-3` [APO, Apomorphine HCl, reference compound]: the “APO dose needed to achieve the maximum response in numbers of PEs” value is “at least 0.8 mg/kg” and the “APO dose with no significant effect in increasing numbers of PEs” value was not above 0.4 mg/kg.
